Source: publication PMC10655810 (Journal of Agricultural and Food Chemistry, 2023)

Protein sequences, listed by entry. Tags and fused reporters are not part of them. Residues count along the entry.
UniProt P00791, 60-385: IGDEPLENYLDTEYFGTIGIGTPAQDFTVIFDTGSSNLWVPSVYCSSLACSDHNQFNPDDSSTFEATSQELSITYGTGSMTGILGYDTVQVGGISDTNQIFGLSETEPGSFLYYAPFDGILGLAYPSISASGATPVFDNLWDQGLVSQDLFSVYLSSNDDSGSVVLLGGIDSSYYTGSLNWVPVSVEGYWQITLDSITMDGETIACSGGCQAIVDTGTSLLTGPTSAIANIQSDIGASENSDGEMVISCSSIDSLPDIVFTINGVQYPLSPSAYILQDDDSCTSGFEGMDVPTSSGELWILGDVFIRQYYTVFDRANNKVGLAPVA

Target: pepsin (Sus scrofa, UniProt P00791)
Type: biochemical, porcine
Conditions: pH 2.5

O=S(=O)(F)Cc1ccccc1 [PMSF, phenylmethylsulfonyl fluoride]
Proteolytic activity of pepsin (residual activity): 81 ± 8.9%
